From patent US20250388565A1, “ESTROGEN RECEPTOR ALPHA DEGRADERS AND METHODS OF USE THEREOF” (Relay Therapeutics, Inc., priority 2022, published 2025)

The chains behind the UniProt entries cited, without tags or fusion partners.
UniProt P03372, whole entry: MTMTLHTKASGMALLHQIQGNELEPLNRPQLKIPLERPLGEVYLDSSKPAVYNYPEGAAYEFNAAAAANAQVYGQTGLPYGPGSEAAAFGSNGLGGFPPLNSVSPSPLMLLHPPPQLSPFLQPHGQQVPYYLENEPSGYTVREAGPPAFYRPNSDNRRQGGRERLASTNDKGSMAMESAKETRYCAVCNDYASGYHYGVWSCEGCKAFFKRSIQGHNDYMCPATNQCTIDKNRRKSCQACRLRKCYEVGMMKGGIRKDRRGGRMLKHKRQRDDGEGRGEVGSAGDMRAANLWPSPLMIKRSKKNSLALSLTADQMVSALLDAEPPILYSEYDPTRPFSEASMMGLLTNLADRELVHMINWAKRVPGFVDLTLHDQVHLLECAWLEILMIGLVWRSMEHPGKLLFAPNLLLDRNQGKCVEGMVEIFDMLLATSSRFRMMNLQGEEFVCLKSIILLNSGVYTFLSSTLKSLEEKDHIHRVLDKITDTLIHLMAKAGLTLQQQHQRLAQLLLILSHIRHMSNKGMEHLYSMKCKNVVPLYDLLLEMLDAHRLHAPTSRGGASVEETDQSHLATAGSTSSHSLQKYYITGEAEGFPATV

Target: ERα protein (HiBiT-tagged) in ESR1_HiBiT KI MCF7 cells (Homo sapiens, UniProt P03372)
Assay: Nano Glo HiBiT Lytic Degradation Assay
Format: cell-based
Conditions: read-out: MCF7 ESR1 HiBiT - (DC50), 6 hours with compound, 14-point dose response 1:3, bell-shape curve fit, half-maximal effect of first Hill model

O=C1CC[C@H](N2Cc3cc(N4CCN(CC5CCN(c6ccc([C@H]7c8ccc(O)cc8CO[C@]78CCCc7ccccc78)cc6)CC5)CC4)ccc3C2=O)C(=O)N1 and C[C@@]1(c2ccccc2)CCc2cc(O)ccc2[C@H]1c1ccc(N2CCC(CN3CCN(c4ccc5c(c4)CN([C@H]4CCC(=O)NC4=O)C5=O)CC3)CC2)cc1 are the same in DC50: 8 nM for the first, 8 nM for the second.

Going from O=C1CC[C@H](N2Cc3cc(N4CCN(CC5CCN(c6ccc([C@@H]7c8ccc9[nH]ncc9c8CC[C@@H]7c7ccccc7)cc6)CC5)CC4)ccc3C2=O)C(=O)N1 to Nc1ccc2c(c1)CC[C@H](c1ccccc1)[C@@H]2c1ccc(N2CCC(CN3CCN(c4ccc5c(c4)CN([C@H]4CCC(=O)NC4=O)C5=O)CC3)CC2)cc1, the DC50 falls from ≥ 10000 nM to 0.85 nM.

Compared with O=C1CC[C@H](N2Cc3cc(N4CCN(CC5CCN(c6ccc([C@H]7c8ccc(O)cc8CO[C@H]7C7CCCC7)cc6)CC5)CC4)ccc3C2=O)C(=O)N1, O=C1CC[C@H](N2Cc3cc(N4CCN(CC5CCN(c6ccc([C@@H]7c8ccc(O)cc8CO[C@@H]7C7CCCC7)cc6)CC5)CC4)ccc3C2=O)C(=O)N1 is 42-fold lower in DC50: 11 nM for the first, 0.26 nM for the second.

Going from O=C1CC[C@H](N2Cc3cc(N4CCN(CC5CCN(c6ccc([C@@H]7c8ccc(O)cc8CC[C@@H]7C7CCCCCC7)cc6)CC5)CC4)ccc3C2=O)C(=O)N1 to O=C1CC[C@H](N2Cc3cc(N4CCN(CC5CCN(c6ccc([C@H]7c8ccc(O)cc8CC[C@H]7CC(F)(F)F)cc6)CC5)CC4)ccc3C2=O)C(=O)N1, the DC50 rises from 1.1 nM to 1100 nM (1000-fold).

In the case of O=C1CCC(c2ccc(NC3CCN(CC4CCN(c5ccc([C@@H]6c7ccc(O)cc7CC[C@@H]6c6ccccc6)cc5)CC4)CC3)cc2)C(=O)N1 (stereo partly drawn), the DC50 is reported as 182 nM.
